We go through one molecule from patent US20170189357A1, “METHODS OF LIMITING MORBIDITY IN HEMOGLOBINOPATHIES” (DUKE UNIVERSITY, priority 2014, published 2017).

This test concerns leukocytes. The test is described as follows: Leukocyte adhesion in transgenic sickle cell mice after TNFα challenge. The following applies: over a period of 55 min, p<0.001.

In the case of `COc1cc(F)c(F)c(Nc2ccc(I)cc2F)c1NS(=O)(=O)C1(C[C@H](O)CO)CC1` [RDEA119], the “reduction of leukocyte adhesion” value (0.025 mg/kg) was determined as 73%, the “reduction of leukocyte adhesion” value (0.05 mg/kg) came out at 99 and the “reduction of leukocyte adhesion” value (0.1 mg/kg) was 97%.
